Read-outs that look alike come from different tables or passages of the source.
Target: T1, TP-receptor (vascular, TPVASC) (Rattus norvegicus, UniProt P34978)
T1 construct: measured in vitro in isolated smooth muscle preparations; from tissue; host or cells: rings of isolated rat thoracic aorta
T1 sequence (P34978 1-341): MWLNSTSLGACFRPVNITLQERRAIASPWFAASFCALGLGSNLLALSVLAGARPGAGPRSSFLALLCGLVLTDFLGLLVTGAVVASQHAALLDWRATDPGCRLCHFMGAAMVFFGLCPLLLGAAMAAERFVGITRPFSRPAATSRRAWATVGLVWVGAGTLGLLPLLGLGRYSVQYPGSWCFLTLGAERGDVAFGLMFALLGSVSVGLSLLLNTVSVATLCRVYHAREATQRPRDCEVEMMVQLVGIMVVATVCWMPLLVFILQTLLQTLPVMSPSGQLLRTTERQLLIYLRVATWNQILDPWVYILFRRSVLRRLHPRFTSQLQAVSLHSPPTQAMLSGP
Assay: TP-vasoconstrictor activity: contraction of rings of isolated rat thoracic aorta, without or with SQ29,548
Protocol: Activity at different prostanoid receptors was measured in vitro in isolated smooth muscle preparations. FP-activity was measured as contraction of the isolated feline iris sphincter. EP1-activity was measured as contraction of the longitudinal smooth muscle of the isolated guinea pig ileum. EP3-activity was measured as inhibition of the twitch response induced by electrical field stimulation in the isolated guinea pig was deferens and as contraction of the longitudinal smooth muscle of the isolated chick ileum. TP-vasoconstrictor activity was measured as contraction of rings of the isolated rat thoracic aorta. Effects on platelets from healthy human donors were measured by incubating platelet-rich plasma with the compounds described herein. Inhibition of aggregation was determined by the ability of the compounds described herein to inhibit platelet aggregation in platelet-rich plasma induced by 20 μM ADP.
In addition, inhibition by the thromboxane A2-receptor antagonist SQ29,548 ([1S-[1α, 2α (5Z), 3α, 4α]]-7-[3-[[2-[phenylamino)carbonyl]-hydrazino]methyl]-7-oxabicyclo[2.2.1] hept-2-yl]-5-heptenoic acid) of vasoconstrictor activity was investigated. For that purpose, activity of the compound of Example 4, the compound of Example 7, and U-46619 (9,11-dideoxy-9α,11α-methanoepoxy prostaglandin F2α), a potent and stable thromboxane A2 analog, was measured in rings of the isolated rat thoracic aorta, first in the absence and then in the presence of SQ29,548 (1 uM).

9,11-dideoxy-9α,11α-methanoepoxy prostaglandin F2α [Example U-46619, reference compound]
EC50 (Table 7, read-out: EC50 (Rat Aorta)): 10 nM | EC50 (absence of SQ29,548, read-out: EC50 at TPVASC-receptor, rat aorta): 1.3 nM | EC50 (presence of SQ29,548 (1 uM), read-out: EC50 at TPVASC-receptor, rat aorta): 8080 nM
